Measured values as given in EP0863891B1, “(METHYLSULFONYL)PHENYL-2-(5H)-FURANONES AS COX-2 INHIBITORS” (Merck Frosst Canada & Co., priority 1995, dated 1997).

Amino acid sequences for entries named in this document (tags omitted). Residues count along the entry.
UniProt P23219, 24-599: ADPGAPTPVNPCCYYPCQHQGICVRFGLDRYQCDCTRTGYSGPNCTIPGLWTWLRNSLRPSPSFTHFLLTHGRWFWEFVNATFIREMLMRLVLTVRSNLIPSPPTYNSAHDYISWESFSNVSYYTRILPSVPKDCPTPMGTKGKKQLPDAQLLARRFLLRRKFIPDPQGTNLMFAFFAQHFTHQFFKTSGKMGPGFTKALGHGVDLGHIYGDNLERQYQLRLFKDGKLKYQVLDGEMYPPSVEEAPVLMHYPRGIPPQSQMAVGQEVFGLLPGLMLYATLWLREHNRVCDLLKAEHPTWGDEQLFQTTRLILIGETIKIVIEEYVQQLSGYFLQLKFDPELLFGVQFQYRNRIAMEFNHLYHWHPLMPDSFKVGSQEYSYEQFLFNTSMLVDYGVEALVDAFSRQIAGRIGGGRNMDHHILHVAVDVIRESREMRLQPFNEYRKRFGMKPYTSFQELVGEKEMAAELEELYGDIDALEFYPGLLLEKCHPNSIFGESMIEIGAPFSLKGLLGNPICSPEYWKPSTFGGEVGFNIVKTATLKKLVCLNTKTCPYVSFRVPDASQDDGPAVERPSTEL

Target: T1, CHO [hCOX-1] (Homo sapiens, UniProt P23219)
T1 construct: expressed in transfected cells; host or cells: CHO cells, stably transfected with pCDNAIII
Experiment: Whole cell assay for COX-1 using CHO transfected cell line (PGE2 synthesis)
Assay type: cell-based
Details: Table III; CHO[hCOX-1] cells, 0.5 µM AA

IC50: > 50 µM
SMILES: CC1(C)OC(=O)C(Sc2ccccc2)=C1c1ccc(S(C)(=O)=O)cc1 [Example 11, 3-Phenylthio-5,5-dimethyl-4-(4-(methylsulfonyl)phenyl)-5H-furan-2-one]
